Laboratory results reported in ChEMBL document CHEMBL1155125, “Activation of CFTR by UCCF-029 and genistein” (Bioorg Med Chem Lett, 2008).

Sequences of proteins named here, by UniProt entry; tags and fusion partners are left off. A line that says so, or that is headed by a name, gives the form on record, which may keep a tag or linker.
UniProt P13569, as listed by the source: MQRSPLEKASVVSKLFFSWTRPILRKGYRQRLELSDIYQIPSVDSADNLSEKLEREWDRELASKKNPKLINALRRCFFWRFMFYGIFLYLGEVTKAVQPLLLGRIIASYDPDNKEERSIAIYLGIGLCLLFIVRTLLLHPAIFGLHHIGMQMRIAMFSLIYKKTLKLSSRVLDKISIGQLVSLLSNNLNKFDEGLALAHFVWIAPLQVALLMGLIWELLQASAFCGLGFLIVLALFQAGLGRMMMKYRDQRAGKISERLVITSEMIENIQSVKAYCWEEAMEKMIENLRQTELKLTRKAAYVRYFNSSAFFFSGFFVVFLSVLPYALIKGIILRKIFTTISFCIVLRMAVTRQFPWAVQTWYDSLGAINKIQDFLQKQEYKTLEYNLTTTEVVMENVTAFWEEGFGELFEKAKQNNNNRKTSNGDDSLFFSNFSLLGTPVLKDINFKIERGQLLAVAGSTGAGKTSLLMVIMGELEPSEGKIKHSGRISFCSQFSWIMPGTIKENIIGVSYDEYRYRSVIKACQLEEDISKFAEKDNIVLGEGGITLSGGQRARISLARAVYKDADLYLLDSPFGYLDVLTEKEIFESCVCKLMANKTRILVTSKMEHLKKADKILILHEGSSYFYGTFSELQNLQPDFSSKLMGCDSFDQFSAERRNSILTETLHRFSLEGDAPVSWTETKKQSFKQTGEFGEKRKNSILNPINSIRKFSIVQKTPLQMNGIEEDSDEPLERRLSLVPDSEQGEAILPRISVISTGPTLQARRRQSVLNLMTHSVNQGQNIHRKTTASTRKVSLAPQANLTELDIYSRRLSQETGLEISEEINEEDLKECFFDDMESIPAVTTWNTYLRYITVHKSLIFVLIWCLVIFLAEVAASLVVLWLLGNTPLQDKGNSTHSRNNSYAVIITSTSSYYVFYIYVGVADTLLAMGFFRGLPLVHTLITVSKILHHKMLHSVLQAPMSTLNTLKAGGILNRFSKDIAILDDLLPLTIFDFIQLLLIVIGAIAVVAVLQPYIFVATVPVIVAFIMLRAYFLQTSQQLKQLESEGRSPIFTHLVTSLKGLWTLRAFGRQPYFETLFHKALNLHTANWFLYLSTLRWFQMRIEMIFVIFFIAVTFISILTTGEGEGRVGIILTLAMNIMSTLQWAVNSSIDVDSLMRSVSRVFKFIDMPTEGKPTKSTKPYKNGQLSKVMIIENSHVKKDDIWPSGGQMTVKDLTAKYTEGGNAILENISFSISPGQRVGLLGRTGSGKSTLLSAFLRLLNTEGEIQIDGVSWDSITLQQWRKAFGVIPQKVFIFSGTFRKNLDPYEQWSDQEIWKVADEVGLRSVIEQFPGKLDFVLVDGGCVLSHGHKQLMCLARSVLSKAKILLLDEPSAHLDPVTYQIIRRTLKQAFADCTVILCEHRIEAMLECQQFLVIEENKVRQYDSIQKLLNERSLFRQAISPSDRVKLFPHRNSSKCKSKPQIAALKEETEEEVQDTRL

Biological target: Cystic fibrosis transmembrane conductance regulator (Homo sapiens, UniProt P13569, F508DEL)
Test: Agonist activity at CFTR-deltaF508 mutant expressed in NIH3T3 cells assessed as increase in forskolin-stimulated current
Type: functional, cell-based

- EC50: 4.4 µM
Structure (SMILES): O=c1c(-c2ccc(O)cc2)coc2cc(O)cc(O)c12 [GENISTEIN]
